# According to ChEMBL document CHEMBL1143371, “2-Aminoimidazoles inhibitors of TGF-beta receptor 1” (Bioorg Med Chem Lett, 2009):
# Molecular target: T1, TGF-beta receptor type-1 (Homo sapiens, UniProt P36897)
# T1 sequence (P36897 whole entry): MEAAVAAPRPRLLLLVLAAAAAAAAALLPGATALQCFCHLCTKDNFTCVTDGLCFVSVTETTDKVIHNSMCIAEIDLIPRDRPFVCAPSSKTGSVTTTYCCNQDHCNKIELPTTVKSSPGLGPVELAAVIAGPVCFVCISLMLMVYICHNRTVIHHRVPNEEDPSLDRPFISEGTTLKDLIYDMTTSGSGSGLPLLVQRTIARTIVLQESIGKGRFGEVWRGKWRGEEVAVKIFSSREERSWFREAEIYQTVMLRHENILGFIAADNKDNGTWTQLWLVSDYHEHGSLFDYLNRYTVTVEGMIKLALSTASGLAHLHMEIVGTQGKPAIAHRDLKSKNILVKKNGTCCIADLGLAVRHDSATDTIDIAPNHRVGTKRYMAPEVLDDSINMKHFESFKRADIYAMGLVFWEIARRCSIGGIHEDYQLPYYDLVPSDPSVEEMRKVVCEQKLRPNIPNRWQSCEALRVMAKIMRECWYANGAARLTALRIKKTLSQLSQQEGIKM
# Test: Binding affinity to human TGFBR1
smiles,measurement,value
CC(=O)Nc1nc(-c2ccc(F)c(C)n2)c(-c2ccc3nccnc3c2)[nH]1,Ki,7.1 nM
